Results as given in ChEMBL document CHEMBL4145686, “Discovery of a Potent and Selective Steroidal Glucocorticoid Receptor Antagonist (ORIC-101)” (J Med Chem, 2018).

Organism: Homo sapiens
Assay: Selectivity index, ratio of IC50 for antagonist activity at human PR expressed in CHO-K1 cells to IC50 for antagonist activity at human GR expressed in CHO-K1 cells a
Assay type: cell-based

CC(C)N(C)c1ccc([C@H]2C[C@@]3(C)[C@@H](CC[C@@]3(O)C#CC(C)(C)C)[C@@H]3CCC4=CC(=O)CC[C@@H]4[C@H]32)cc1
Ratio IC50: 3.8
